The values that follow are results of earlier work, collected in patent US9539259B2, “Compounds and methods of use thereof for treating neurodegenerative disorders” (THE JOHNS HOPKINS UNIVERSITY, priority 2012, dated 2017).

In the data set the target is T1, DLK (Homo sapiens, UniProt Q12852).
T1 sequence (Q12852 1-859): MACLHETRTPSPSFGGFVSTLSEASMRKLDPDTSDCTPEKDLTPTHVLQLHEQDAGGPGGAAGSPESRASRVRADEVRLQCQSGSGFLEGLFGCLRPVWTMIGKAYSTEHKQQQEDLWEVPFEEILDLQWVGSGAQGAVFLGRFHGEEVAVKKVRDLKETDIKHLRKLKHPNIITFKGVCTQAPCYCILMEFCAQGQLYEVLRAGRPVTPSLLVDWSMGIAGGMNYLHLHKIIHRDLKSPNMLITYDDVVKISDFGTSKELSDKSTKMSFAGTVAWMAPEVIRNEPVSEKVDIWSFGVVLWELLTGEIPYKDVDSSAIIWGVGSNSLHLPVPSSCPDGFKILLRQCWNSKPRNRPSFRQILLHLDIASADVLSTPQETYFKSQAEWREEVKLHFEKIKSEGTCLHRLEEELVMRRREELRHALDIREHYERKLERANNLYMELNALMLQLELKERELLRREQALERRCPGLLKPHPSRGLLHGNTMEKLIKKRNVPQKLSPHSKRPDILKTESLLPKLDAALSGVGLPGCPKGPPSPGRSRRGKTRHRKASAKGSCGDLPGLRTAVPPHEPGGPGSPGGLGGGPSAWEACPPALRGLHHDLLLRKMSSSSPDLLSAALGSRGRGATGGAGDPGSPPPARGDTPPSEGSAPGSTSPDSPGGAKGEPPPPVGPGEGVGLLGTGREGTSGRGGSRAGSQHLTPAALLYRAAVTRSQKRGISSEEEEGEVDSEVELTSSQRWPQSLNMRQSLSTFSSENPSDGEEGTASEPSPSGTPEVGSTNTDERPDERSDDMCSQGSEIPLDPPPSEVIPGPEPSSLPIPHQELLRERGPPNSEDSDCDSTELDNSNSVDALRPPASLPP
Conditions: published kinase inhibitor profiles; cited from earlier work.

Consider `C[C@]12O[C@H](C[C@]1(O)CO)n1c3ccccc3c3c4c(c5c6ccccc6n2c5c31)CNC4=O` [lestautinib, lestaurtinib], for which the “binding to DLK” value was “reported to bind DLK”.
